Bounds are passed on as bounds.

The chains behind the UniProt entries cited, without tags or fusion partners. Where a name states a change or a piece, a line headed by the entry shows the natural chain unless it says otherwise.
UniProt Q9UBF8: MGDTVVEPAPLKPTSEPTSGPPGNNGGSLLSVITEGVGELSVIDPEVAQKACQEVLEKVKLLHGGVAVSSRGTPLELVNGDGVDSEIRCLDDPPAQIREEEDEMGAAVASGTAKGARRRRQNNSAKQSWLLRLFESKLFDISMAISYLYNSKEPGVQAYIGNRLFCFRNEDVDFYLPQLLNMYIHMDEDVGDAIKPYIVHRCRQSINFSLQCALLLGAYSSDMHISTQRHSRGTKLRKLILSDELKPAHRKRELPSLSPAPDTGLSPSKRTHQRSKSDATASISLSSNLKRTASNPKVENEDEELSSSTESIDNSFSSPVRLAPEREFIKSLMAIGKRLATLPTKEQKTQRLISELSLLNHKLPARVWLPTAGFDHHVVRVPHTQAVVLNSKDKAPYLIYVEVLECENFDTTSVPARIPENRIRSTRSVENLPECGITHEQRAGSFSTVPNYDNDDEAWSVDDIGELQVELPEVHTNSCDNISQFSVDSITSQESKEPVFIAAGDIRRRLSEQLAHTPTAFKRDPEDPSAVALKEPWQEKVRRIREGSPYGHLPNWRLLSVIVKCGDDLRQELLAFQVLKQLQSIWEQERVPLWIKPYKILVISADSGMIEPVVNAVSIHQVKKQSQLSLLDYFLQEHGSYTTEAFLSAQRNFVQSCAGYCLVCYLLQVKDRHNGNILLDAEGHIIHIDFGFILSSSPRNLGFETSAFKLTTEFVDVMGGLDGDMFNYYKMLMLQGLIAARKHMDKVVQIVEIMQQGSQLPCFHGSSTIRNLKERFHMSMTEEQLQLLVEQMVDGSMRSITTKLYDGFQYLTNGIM

One may read the Kd as the concentration at which binding is half-saturated. Low readings indicate tighter binding, high ones weaker binding.

The target in the test is T1, PIK4CB (Homo sapiens, UniProt Q9UBF8).
T1 construct: purchased Eurofins DiscoverX Corporation (KINOMEscan); host or cells: E. coli BL21-derived host (T7 phage) or HEK-293
The test can be described thus: KINOMEscan competition binding assay.

Regarding “imatinib [Compound A, reference compound]”, the Kd is over 10 µM.

These data come from patent US20200360477A1.
